According to patent US6664231B1, “Anti-fungal peptides” (priority 1993, dated 2003):

How the values were obtained:
[1] = tested on: C. albicans (CA-1, Strain SLU-1); assay: Radial diffusion assay; type: cell-based, Candida albicans; conditions: pmoles of peptide added to well to achieve a 30 mm^2 zone, PROBIT analysis, crude or purified (P′) peptide
Procedure: In the radial diffusion assay procedures, the CA-1 cultures and peptide solutions were prepared as in the broth assay procedure described above. Ten mL of molten underlayer agarose comprising 3% Sabouraud Dextrose broth, 1% agarose (Pharmacia, Piscataway, N.J.), 0.02% Tween 20, and 10 mM sodium phosphate at pH 7.4, was added to polystyrene tubes and maintained in a 56° C. water bath until the addition of yeast. Tubes were cooled to approximately 45° C., yeast were added to give a final concentration of 1×10^6 CFU/mL, and the tubes were mixed again by inverting. The contents were poured into level square petri dishes and distributed evenly. […] A series of wells were punched into the hardened agarose using a sterile 3 mm punch attached to a vacuum apparatus.
Peptides to be assayed were 2-fold serially diluted in Dulbecco's PBS (D-PBS) starting from a concentration of approximately 1 mg/mL. Five μL of each dilution were added to each well and the plates were incubated at 37° C. for 3 hours. An overlayer of 10 mL of molten agarose comprising 6% Sabouraud Dextrose broth, 1% agarose, and 10 mM sodium phosphate, pH 7.4, (at approximately 45° C.) was then added and plates were incubated overnight at 37° C. Following this overnight incubation, a dilute Coomassie solution was poured into the plates and allowed to stain for 24 hours.
Clear zones of growth inhibition around each well were measured with calipers. The actual area of growth inhibition (mm^2) was calculated by subtracting the area of the well. Table 1 below sets out the results of the radial diffusion assays for tested peptides in terms of the number of picomoles (pmol) of peptide required to establish a 30 mm^2 area of growth inhibition calculated by PROBIT analysis (e.g., calculated from regression of the linear portion of log-concentration dose-response curve, log pmol/well vs. net area of inhibition).

Candida glabrata = assay: Radial diffusion assay, Candida species (Table 2); type: cell-based
Procedure: (§1) The anti-fungal activity of Domain III derived peptides was also evaluated in vitro against a variety of fungal species, including Candida glabrata, Candida krusei, Candida lusitaniae, Candida parapsilosis, and Candida tropicalis. For these experiments, one colony of each of the above-listed Candida strains was picked from a Sabouraud's dextrose agar (SDA) plate and inoculated into 5 mL of Sabouraud's dextrose broth (SDB, 2% dextrose and 1% neopeptone) or, for C. krusei, Yeast Malt broth (YM, Becton Dickenson, Cockeysville, Md., cat no. BL 11405) in 12 mL polyproplyene snap-cap tubes. The tube cultures were incubated overnight with shaking at 37° C.
(§2) Cultures were harvested when the OD570 of a 1:10 dilution was greater than or equal to the following values: 0.083 for Candida glabrata, 0.154 for Candida krusei, 0.117 for Candida lusitaniae, 0.076 for Candida parapsilosis, and 0.192 for Candida tropicalis. Cells were centrifuged for 7 minutes in an Eppendorf microfuge at 3,000 rpm (about 1,500 g). The cell pellet was resuspended in 1 mL PBS and approximately 1×10^7 cells in about 0.5 mL were added to 10 mL of cooled underlay agar (3% SBD, 1% agarose, 0.02% Tween 20, 10 mM sodium phosphate buffer, pH 7.4 at about 45° C.). The suspension was poured into square petri plates, allowed to solidify, and wells cut as described above.
(§3) Peptides were two-fold serially diluted with D-PBS from about 20 μL of a starting concentration of approximately 1 mg/mL. Five μL of peptide dilution were added per well and allowed to diffuse for at least about 30 minutes into the agar at […] (to allow complete diffusion). Then 10 mL of molten overlayer agarose (6% SDB, 1% agarose, 10 mM sodium phosphate buffer, pH 7.4 at about 45° C.) were added and the plates were incubated inverted at […] overnight. Plates were stained with a dilute Coomassie solution, inhibition zones were measured with calipers and net areas were calculated, then converted to pmole values by PROBIT analysis.

Candida krusei = assay: Radial diffusion assay, Candida species (Table 2); type: cell-based
Procedure: as §1, §2, §3

Candida lusitaniae = assay: Radial diffusion assay, Candida species (Table 2); type: cell-based
Procedure: as §1, §2, §3

Candida parapsilosis = assay: Radial diffusion assay, Candida species (Table 2); type: cell-based
Procedure: as §1, §2, §3

Candida tropicalis = assay: Radial diffusion assay, Candida species (Table 2); type: cell-based
Procedure: as §1, §2, §3

[2] = tested on: mouse RAW 264.7 cells incubated with E. coli O113 LPS; conditions: RAW 264.7 cells with E. coli O113 LPS; concentration reversing LPS growth inhibition by 50%
Procedure: (§4) An in vitro LPS neutralization screening assay for evaluation of Domain III derived peptides was developed (as described in co-owned and co-pending U.S. patent application Ser. No. 08/306,473) which provides both a measure of efficacy of each peptide (EC50) and of the toxicity/growth inhibition of each peptide (IC50).
(§5) The cells were counted and their concentration adjusted to 2×10^5 cells/mL and 100 μL aliquots were added to each well of a 96-well microtitre plate. […] This incubation was performed in the absence or presence of peptides in varying concentrations between 25 ng/mL and 50 μg/mL. […] Cell proliferation was quantitatively measured by the addition of 1 μCi/well [^3H]-thymidine 5 hours after the time of initiation of the assay. After the 15-hour incubation, labeled cells were harvested onto glass fiber filters with a cell harvester (Inotech Biosystems, INB-384, Sample Processing and Filter Counting System, Lansing, Mich.).

mouse RAW 264.7 cells = conditions: RAW 264.7 cell growth inhibited by 50%
Procedure: as §4, §5

Candida albicans = assay: Radial diffusion assay, Candida species (Table 2); type: cell-based; conditions: higher effective concentration of agarose than Table 1
in vitro = in vitro ADME, rat or human serum; conditions: half-life of peptide in serum as detected by HPLC analysis
Procedure: (§6) For these serum stability experiments, peptides were prepared by solid phase peptide sythesis and purified to 94% or greater purity as described in Example 1. Blood was collected from metaphane anesthesized rats by aortic bleed into Vacutainer™ tubes and allowed to clot at room temperature for approximately 30 minutes, then centrifuged at 3000 rpm (about 1000×g) for 10 minutes at room temperature and the serum aspirated. In addition, frozen human serum (North American Biologics, Inc., Miami, Fla., cat. no. 2140, lot no. 94115) was thawed at room temperature and filtered through a 0.45 μm membrane before use.
(§7) A 1 mg/mL solution of an exemplary XMP peptide to be tested was added to an equal volume of either rat or human serum described above and maintained at 37° C. At 0, 1, 2, and 4 hours, 100 μL were removed and processed by solid phase extraction for HPLC analysis as follows. Serum samples were prepared for HPLC using C-18 Sep-Pak cartridges (1 mL cartridge with 100 mg of sorbent, Waters Corp., Milford, Mass.). One hundred μL of serum sample were added to an equal volume of 1% TFA and mixed for 30 seconds on a Vortex mixer. The sample was then applied to a C-18 Sep-Pak cartridge that had been conditioned by washing with 1 mL of methanol followed by 1 mL Milli-Q water. Weakly reed components were eluted by washing with 1 mL of 0. 1% TFA. The bound peptide was eluted with two volumes of 250 μL 80% acetonitrile/0.065% TFA.
The material eluted from the Sep-Pak cartridge was analyzed on a Michrom Ultaafast Microprotein Analyzer equipped with a 150 mm×1 mm, 5μ particle, 300 Å pore C-8 Zorbax column. The column oven was set to 40° C., the flow rate was 100 μL/minute, and injection volumes were typically 5-10 μL. HPLC was performed using 5% acetonitrile/0.1% TFA in water as mobile phase A, and 80% acetonitrile/0.065% TFA as mobile phase B. The eluate was monitored spectiophotometrically at 214 nm. Peptide standards were dissolved in mobile phase A at 0. 1 mg/mL. The gradient was 25-35% B/10 minutes followed by a 5 minute wash step of 100% B and reequilibration at 25% B for 10 minutes.

[3] = tested on: Candida albicans SLU-1 strain; assay: Serum stability, anti-fungal activity after serum incubation by radial diffusion bioassay; type: in vitro ADME, rat or human serum
Procedure: as §6, §7
The peptides identified and purified after serum incubation as described above were subjected to N-terminal peptide sequencing performed on an Applied Biosystems Model 477A/120A sequencer and to electrospray ionization mass spectrometry (ESI/MS) performed using a VG Biotech Bio-Q Mass Spectrometer. In addition, the peptides identified and purified after serum incubation as described above were also tested for their anti-fungal activity in a radial diffusion bioassay with Candida albicans SLU-1 strain as described in Example 2.

Structure (SMILES)	C. albicans pmol/30 mm^2 zone [1]	C. albicans pmol/30 mm^2 zone ([1]; listed as XMP.286P′)	Anti-fungal activity: pmol/30 mm^2 zone, Candida glabrata (Candida glabrata)	Anti-fungal activity: pmol/30 mm^2 zone, Candida krusei (Candida krusei)	Anti-fungal activity: pmol/30 mm^2 zone, Candida lusitaniae (Candida lusitaniae)	Anti-fungal activity: pmol/30 mm^2 zone, Candida parapsilosis (Candida parapsilosis)	Anti-fungal activity: pmol/30 mm^2 zone, Candida tropicalis (Candida tropicalis)	In Vitro LPS Neutralization EC50 [2]	IC50 (toxicity/growth inhibition of peptide) (mouse RAW 264.7 cells)	C. albicans pmol/30 mm^2 zone ([1]; listed as XMP.332P′)	Anti-fungal activity: pmol/30 mm^2 zone, Candida albicans (Candida albicans)	HPLC Peptide in Serum t ½ (hr.) (in vitro)	Activity in Serum t ½ (hr.) [3]	decrease in activity during serum incubation [3]
CC[C@H](C)[C@H](NC(=O)[C@H](CC(C)C)NC(=O)[C@H](Cc1c[nH]c2ccccc12)NC(=O)[C@H](CCCCN)NC(=O)[C@@H](NC(=O)[C@@H](N)CCCCN)C(C)C)C(=O)N[C@@H](CCC(N)=O)C(=O)N[C@@H](CC(C)C)C(=O)N[C@@H](Cc1ccccc1)C(=O)N[C@@H](Cc1c[nH]cn1)C(=O)N[C@@H](CCCCN)C(=O)N[C@@H](CCCCN)C(N)=O [XMP.286]	1,216 pmol/30 mm^2 zone	253 pmol/30 mm^2 zone	1,843 pmol/30 mm^2 zone	1,558 pmol/30 mm^2 zone	1,235 pmol/30 mm^2 zone	1,134 pmol/30 mm^2 zone	606 pmol/30 mm^2 zone	4.68 ± 0.26 µg/mL	NA (NA for IC50 means no evidence of decreased RAW cell growth at up to 50 μg/ml)	–	–	–	–	–
CC[C@@H](C)[C@@H](NC(=O)[C@@H](CCC(N)=O)NC(=O)[C@@H](CC(C)C)NC(=O)[C@@H](CCCCN)NC(=O)[C@H](N)CCCCN)C(=O)N[C@H](CC(C)C)C(=O)N[C@H](Cc1c[nH]c2ccccc12)C(=O)N[C@H](CCCCN)C(=O)N[C@H](CCCCN)C(N)=O [XMP.332]	356 pmol/30 mm^2 zone	–	2,190 pmol/30 mm^2 zone	2,802 pmol/30 mm^2 zone	<219 pmol/30 mm^2 zone	170 pmol/30 mm^2 zone	866 pmol/30 mm^2 zone	5.65 ± 0.16 µg/mL	NA (NA for IC50 means no evidence of decreased RAW cell growth at up to 50 μg/ml)	338 pmol/30 mm^2 zone	3,931 pmol/30 mm^2 zone	indefinite	indefinite	did not show any decrease
CC[C@H](C)[C@H](NC(=O)[C@H](CC(C)C)NC(=O)[C@H](Cc1c[nH]c2ccccc12)NC(=O)[C@H](CCCCN)NC(=O)[C@H](N)CCCCN)C(=O)N[C@@H](CCC(N)=O)C(=O)N[C@@H](CC(C)C)C(=O)N[C@@H](CCCCN)C(=O)N[C@@H](CCCCN)C(N)=O [XMP.333]	673 pmol/30 mm^2 zone	–	4,040 pmol/30 mm^2 zone	4,101 pmol/30 mm^2 zone	174 pmol/30 mm^2 zone	209 pmol/30 mm^2 zone	2,894 pmol/30 mm^2 zone	–	NA (NA for IC50 means no evidence of decreased RAW cell growth at up to 50 μg/ml)	–	5,191 pmol/30 mm^2 zone	–	–	–
